AlphaSeq binding of Ab-14 heavy chain variants to a spike HR2 peptide

All variants were tested on one target, the spike HR2 peptide PDVDLGDISGINAS (SARS-CoV-2).

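The starting antibody came from a phage panning campaign against this peptide. Variants in AAYL49 differ from the parent at up to three CDR positions; double and triple changes were sampled at random. In AlphaSeq, yeast of one mating type display the scFv and yeast of the other type display the target. Binding brings cells together so that they mate, and sequencing counts the barcode pairs among the diploids. The ratio of observed to expected reads was calibrated, replicate by replicate, on BCL2-family standards whose Kd was known from biolayer interferometry. There are three technical replicates.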

Ab-14 is the parent antibody, in scFv form: VH, then a (GGGGS)3 linker, then VL. The light chain is unchanged in all variants.
VH: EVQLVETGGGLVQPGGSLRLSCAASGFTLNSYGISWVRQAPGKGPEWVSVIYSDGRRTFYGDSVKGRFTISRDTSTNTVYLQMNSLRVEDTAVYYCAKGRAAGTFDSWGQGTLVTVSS
VL: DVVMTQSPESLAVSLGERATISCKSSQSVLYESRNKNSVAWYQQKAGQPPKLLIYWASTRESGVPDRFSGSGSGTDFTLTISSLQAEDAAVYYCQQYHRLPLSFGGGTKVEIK

Variants are written as CDR1, CDR2 and CDR3 of the heavy chain (limits as in the source). Parent: GFTLNSYGIS, VIYSDGRRTFYGDSVK, GRAAGTFDS. This list gathers variants with a substitution at A102 (VH, numbered from residue 1). Scale: log10 of Kd in nM, estimated from mating counts; low values are strong binders. A pair that was not seen in that replicate is written "nd"; this usually means weak binding, but a binder can also be missed. For reference, the parent read 0.65 as the reference entry and 4.11 (one replicate of three) as a member of this library. As a blank, each scFv also met three strains without target: over library AAYL49, 15% of these pairings were detected, typically at 4.06 and seldom below 2.83. Also given: how often the same scFv was detected with the empty control strains.

For GFTLNSYGIS / VIYSDGRRTFYGDSVK / GRAGGTFDS, the assay gave 1.37, 1.47, 1.44 (controls 1 of 9). Variant GFPQNSYGIS / VIYSDGRRTFYGDSVK / GRAEGTFDS gave nd, nd, nd (controls 0 of 9). For GFTLNSYGSS / VDYSDGRRTFYGDSVK / GRADGTFDS, the assay gave nd, nd, nd (controls 0 of 9). For GFTLNDYGIS / VIYSDGRRTFYGMSVK / GRARGTFDS, the assay gave nd, nd, nd (controls 2 of 9). For GFTLNSYGIS / VIWSDGRRTEYGDSVK / GRAGGTFDS, the assay gave 4.28, 3.31, 4.02 (controls 2 of 9). For GFTLNSYGIS / VIYSDYRRTFYGDSVK / GRAQVTFDS, the assay gave 5.40, 2.82, nd (controls 0 of 9).

Variant GFTLNSYGIS / VIYSDGRRTFYGDSVK / GRAGQGFDS gave 1.91, 1.76, 1.68 (controls 3 of 9). Variant GHTLNSYGIS / VIYSDGRRLFYGDSVK / GRAMGTFDS showed nd, nd, nd (controls 1 of 9). Variant GFTLNSYGIS / VIYSDGRATFYGDSVG / GRAWGTFDS gave nd, nd, nd (controls 0 of 9). With GFTPNSYGIS / VIYSDGRRTFYDDSVK / GRAGGTFDS the result was 1.16, 1.20, 1.21 (controls 0 of 9). Variant AFTLNSYGIS / VIYSFGRRTFYGDSVK / GRAHGTFDS showed nd, nd, nd (controls 0 of 9). Variant GFTLNSYGIS / VIYSDFRRTFYGDSVK / GRWFGTFDS showed nd, nd, nd (controls 0 of 9).

Variant EFTLNSYGIS / VIYSDGRRTFYGDSVK / WRAIGTFDS gave nd, nd, nd (controls 0 of 9). Variant GFCLNSYGIS / VIYSDGRRTFYGDSVK / GRRDGTFDS showed 4.70, 3.21, 4.69 (controls 3 of 9). Variant GFTLNSYGIS / VIYSDGRRTFYGDEVK / GRKGGTFDS showed nd, nd, nd (controls 2 of 9). Variant GFTLNYYGIS / VIYSDGRRTFYMDSVK / GRAVGTFDS gave nd, nd, nd (controls 0 of 9). Variant GFTLNSYGIS / VIYSDGRRTFYGDSVK / GRANGTFDS showed 0.69, 0.81, 1.06 (controls 1 of 9). Variant GLTLNSYIIS / VIYSDGRRTFYGDSVK / GRACGTFDS gave 4.25, 4.20, nd (controls 4 of 9).

Variant GFTLNSYGIS / VIYSDGRLTFYGDSVK / GMAGGTFDS showed nd, nd, nd (controls 0 of 9). With GFCLNSYGIS / VIYSDGRRTFYGDSVK / GRAMGNFDS the result was nd, nd, nd (controls 2 of 9). For GFTLNSYPIS / VIYSDGRRTFYGDSVK / KRAFGTFDS, the assay gave nd, nd, nd (controls 0 of 9). For GFTLNSYGIS / VIYSDGRRTFYGDSVK / GRASGTFRS, the assay gave 1.80, 1.77, 2.06 (controls 1 of 9). Variant GFTLNSYGIS / VIYSDGRRTFYGDSVK / QRWRGTFDS gave nd, nd, nd (controls 3 of 9). With GFTLNSYGIS / VDYSDGRRTFYGDSVK / GVAFGTFDS the result was 4.07, 3.55, nd (controls 3 of 9).

Variant GFTLNSYGIS / VIYSDGRRTFYGDSVK / GRANGTFDT gave nd, nd, nd (controls 0 of 9). With GFTLNSYGIS / VIYSDGRRTFYGDSVK / GRALGTFIF the result was 3.62, 2.78, 4.08 (controls 0 of 9). For FFTLNSYGIS / VIYSDGRRTFYGDSVK / GRAGGTFDS, the assay gave nd, nd, nd (controls 2 of 9). With GFTFNSYGIS / VIYSDGWRTFYGDSVK / GRAVGTFDS the result was nd, nd, nd (controls 0 of 9). With GFTLNSYGIS / VNYSDGRRTFYHDSVK / GRAFGTFDS the result was nd, nd, nd (controls 0 of 9). With GGTLNSYGIS / VIYSDGRRTFYGDSVK / GRADGTCDS the result was nd, nd, nd (controls 0 of 9).

The first 3 entries again:

With GFTLNSYGIS / VIYSDGRRTFYGDSVK / GRAGGTFDS the result was 1.37, 1.47, 1.44 (controls 1 of 9).
With GFPQNSYGIS / VIYSDGRRTFYGDSVK / GRAEGTFDS the result was nd, nd, nd (controls 0 of 9).
With GFTLNSYGSS / VDYSDGRRTFYGDSVK / GRADGTFDS the result was nd, nd, nd (controls 0 of 9).

Data: MIT Lincoln Laboratory AlphaSeq set, Engelhart et al. 2022, doi:10.1038/s41597-022-01779-4, as distributed in FLAb.